{
  "sequences": {"note": "By UniProt entry, the sequences of proteins in these tests, tags left out.", "UniProt P35372, whole entry": "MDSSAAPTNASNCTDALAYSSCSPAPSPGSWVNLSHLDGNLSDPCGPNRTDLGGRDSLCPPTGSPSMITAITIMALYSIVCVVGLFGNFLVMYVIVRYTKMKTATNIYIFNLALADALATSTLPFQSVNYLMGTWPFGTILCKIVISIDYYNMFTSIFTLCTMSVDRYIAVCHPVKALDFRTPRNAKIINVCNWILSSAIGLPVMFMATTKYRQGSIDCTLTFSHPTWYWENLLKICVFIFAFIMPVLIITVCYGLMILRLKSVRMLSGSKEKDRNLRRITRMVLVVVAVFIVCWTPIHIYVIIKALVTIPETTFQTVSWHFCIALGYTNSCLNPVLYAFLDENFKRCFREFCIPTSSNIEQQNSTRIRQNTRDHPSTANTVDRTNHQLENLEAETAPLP"},
  "source": "patent US9272037B2",
  "about": "“Method to treat premature ejaculation in humans” (priority 2005, dated 2016)",
  "origin": "cited, not measured here",
  "biological_target": "μ-opiate receptors (Homo sapiens, UniProt P35372)",
  "conditions": "versus tramadol",
  "data": [
    {"molecule": "CN(C)C[C@H]1CCCC[C@]1(O)c1cccc(O)c1", "note": "[O-desmethyltramadol (M1), O-desmethyltramadol]", "values": [
      {"measurement": "affinity for opiate receptors relative to the parent drug tramadol", "result": "higher affinity"}
    ]}
  ]
}
